Test results published in article PMC5711933, “Intracellular biomass flocculation as a key mechanism of rapid bacterial killing by cationic, amphipathic antimicrobial peptides and peptoids” (Scientific Reports, 2017).

Tests used:
E. coli ATCC 35218 [1] = assay: Membrane depolarization monitored by diSC3-5 fluorescence; format: cell-based; settings: 5-min treatment, 0.2 mM EDTA
[2] = RP-HPLC elution (% ACN) as measure of hydrophobicity; format: physicochemical; settings: chromatographic hydrophobicity; gradient of 5–95% acetonitrile (ACN) over 45 minutes, C18 column, 0.2 mL/min; average of three replicates
EGFP-Luc plasmid = assay: DNA retardation assay (gel electrophoresis); format: binding; settings: EGFP-Luc plasmid in TBS, complexes 20 min at room temperature, 1–2% agarose gel
E. coli ATCC 35218 [3] = assay: Transmission electron microscopy, lysis of bacteria; format: cell-based; settings: concentrations as high as 2 mM (Supp. Fig. S3)
Source text: The same cellular components were all visible in E. coli treated with peptoid 2 (Supp. Fig. S2A) in that no depletion of ribosomes, appearance of large, amorphous, electron-dense regions in the cytoplasm, abolition of DNA aggregation, or smoothing of the outer membrane was observed. […] All other compounds effected large changes in intracellular morphology (Fig. 4B–I), and many did so while leaving both inner and outer membranes apparently intact (Fig. 4C,G,H and Supp. Fig. S2B). These oligomers’ ability to cause cytoplasmic disruption without visibly degrading either membrane explains why no overall correlation was observed between permeabilization or dye leakage and antibacterial activity (Fig. 2, Table 1).
E. coli ATCC 35218, grown overnight at 35 °C in Mueller-Hinton broth (MHB), were resuspended in 1X (150 mM) PBS, pH 7.4, and diluted to a concentration of 1 × 10^8 CFU/mL. Aqueous peptide/peptoid stock solutions were added to 1 mL aliquots of the suspension to the desired final concentration. After 1 hour, small volumes of each sample were serially diluted, plated, and incubated overnight at 35 °C, to be counted the following day. The remaining volume of each sample was centrifuged, and the pellet resuspended and enrobed in 5–10 µL of 2% low-melting agarose (gelling temperature 25° ± 5 °C) then drawn up into the tip of a Pasteur pipette. […]

E. coli ATCC 35218 [4] = assay: Bacterial count by plating after 1-hour treatment, before SEM sample preparation; format: cell-based; settings: 1 hour in PBS, control 5 × 10^5 CFU/mL
Procedure: E. coli was treated with 10 μM peptide or peptoid for 1 hour in phosphate-buffered saline (PBS). […] We used 10 μM peptide/peptoid for all samples since it is near the MICs of the majority of the oligomers.
Before fixation, aliquots of each samples were serially diluted and plated on agar to determine the concentration of live bacteria remaining after the 1-hour treatment. […] (1) SEM samples were treated in PBS (as discussed above), whereas MIC assays are performed in cation-adjusted Mueller-Hinton broth. AMPs and ampetoids are known to interact with ions in the media (for example, when switching from plain Mueller-Hinton broth to cation-adjusted Mueller-Hinton broth)[1], so differences in activity may be due to changes in media composition. (2) the treatments were for one hour only, whereas MICs are determined after 16 hours of growth. […] (3) Some of these compounds may cause inhibition of growth without causing bacterial cell death (i.e., they are bacteriostatic—which is what the MIC indicates—rather than bactericidal—which is determined by plating and counting colonies). […]
Overnight cultures of E. coli ATCC 35218 were centrifuged for 10 min and 2500 × g at room temperature, then resuspended in PBS. […] Bacterial concentrations of the diluted suspensions were calculated from their OD590 values using optical density curves derived from pre-determined concentrations. […]

E. coli ATCC 35218 [5] = assay: Bacterial count by plating after treatment, before TEM sample preparation; format: cell-based; settings: 1 hour in PBS pH 7.4, control 1 × 10^8 CFU/mL

% ACN at RP-HPLC elution [2]: 70.1%
SMILES: C[C@H](NCC(=O)N(CC(=O)N(CCCCN)CC(=O)N(CC(=O)N(CC(=O)N(CCCCN)CC(=O)N(CC(=O)N(CC(=O)N(CCCCN)CC(=O)N(CC(=O)N(CC(=O)N(CCCCN)CC(=O)N(CC(=O)N(CC(=O)N(CCCCN)CC(=O)N(CC(=O)N(CC(N)=O)[C@@H](C)c1ccccc1)[C@@H](C)c1ccccc1)[C@@H](C)c1ccccc1)[C@@H](C)c1ccccc1)[C@@H](C)c1ccccc1)[C@@H](C)c1ccccc1)[C@@H](C)c1ccccc1)[C@@H](C)c1ccccc1)[C@@H](C)c1ccccc1)[C@@H](C)c1ccccc1)[C@@H](C)c1ccccc1)c1ccccc1 [1 17mer]
Concentration causing maximal depolarization (E. coli ATCC 35218 [1]): 3 µM | Retardation assay: mass of compound required to completely retard migration of 1 µg of DNA (EGFP-Luc plasmid): 9.0 µg | Lysis of the bacteria (E. coli ATCC 35218 [3]): not lytic | SEM: Bacterial count after 10 µM treatment (% of control) (E. coli ATCC 35218 [4]): 0.006 % of control | TEM: Bacterial count after 10 µM treatment (% of control) (E. coli ATCC 35218 [5]; 10 µM): 0.3 % of control | TEM: Bacterial count after 100 µM treatment (% of control) (E. coli ATCC 35218 [5]; 100 µM): 0 (0) % of control
